Results on one compound are retold here after US12545653B2, “Compound as PPAR agonist and application thereof” (USA Elixiria Biotech Inc., priority 2019, dated 2026).

Protein sequences, listed by entry. Tags and fused reporters are not part of them.
UniProt P37231, whole entry: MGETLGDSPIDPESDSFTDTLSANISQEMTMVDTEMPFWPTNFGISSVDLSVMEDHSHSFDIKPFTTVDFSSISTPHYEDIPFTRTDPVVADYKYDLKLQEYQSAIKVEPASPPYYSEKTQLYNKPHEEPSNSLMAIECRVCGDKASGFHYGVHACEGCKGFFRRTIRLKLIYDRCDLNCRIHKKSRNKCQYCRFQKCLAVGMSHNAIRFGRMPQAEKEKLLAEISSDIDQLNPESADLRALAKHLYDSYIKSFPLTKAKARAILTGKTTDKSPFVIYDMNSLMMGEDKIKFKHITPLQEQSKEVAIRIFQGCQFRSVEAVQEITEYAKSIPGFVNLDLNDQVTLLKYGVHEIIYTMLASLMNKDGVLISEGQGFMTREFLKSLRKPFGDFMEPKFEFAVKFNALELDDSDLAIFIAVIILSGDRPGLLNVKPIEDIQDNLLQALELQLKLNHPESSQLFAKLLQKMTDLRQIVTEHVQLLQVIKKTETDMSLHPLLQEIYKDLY

The EC50 is the concentration at which the effect is half-maximal.

One experiment addresses PPARγ (Homo sapiens, UniProt P37231). The experiment in a line: In vitro transcriptional activity of PPARγ gene (PPRE-luciferase reporter, HEK 293 T cells). The note with it: read-out: EC50 of PPARγ gene activation; HEK 293 T cells transfected with PPARγ expression and PPRE-luc plasmids, 21 hours. It is filed as cell-based. On the technique in general: A reporter such as luciferase makes a cellular process visible.

The next experiment concerns klotho gene. The experiment in a line: In vivo brain transcriptional activity of klotho gene (RT-PCR of brain mRNA). Also on record: species or system mouse. The note with it: 10 mg/kg body weight/day tail vein, after 10 days of continuous injection.

Molecules are shown by their SMILES.

As to `CCc1ccc(CCCC/C=C/c2ccc3c(c2)C(=O)CC3)cc1`, the EC50 on PPARγ was found to be 5.8 µM. For the same compound, the “mRNA level of klotho gene in the brain of the mouse relative to vehicle control group” value with klotho gene is on record as “more than twice”.
